# Ab-14 light chain CDR variants: yeast mating affinities

Source: Li et al. 2023 (doi:10.1038/s41467-023-39022-2), MIT Lincoln Laboratory and A-Alpha Bio; data file from the FLAb repository.

Antigen: PDVDLGDISGINAS, a 14-residue peptide of the SARS-CoV-2 spike HR2 region.

Each scFv is VH, a 15-residue (Gly4Ser)3 linker, VL, as in the parent Ab-14, and differs from it in the CDRs of the light chain only.
VH: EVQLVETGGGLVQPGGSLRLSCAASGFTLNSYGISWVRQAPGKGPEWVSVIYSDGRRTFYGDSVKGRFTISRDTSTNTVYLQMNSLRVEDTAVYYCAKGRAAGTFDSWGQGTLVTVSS
VL: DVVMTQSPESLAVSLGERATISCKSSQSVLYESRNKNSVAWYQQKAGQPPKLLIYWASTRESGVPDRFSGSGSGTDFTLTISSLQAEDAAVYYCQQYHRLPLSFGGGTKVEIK

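Phage display of a naive human antibody library on the peptide gave the parent. The variants were designed computationally from a first round of random CDR variants and then made and measured. Their group label is 14L_GP_HC (GP: Gaussian process model; HC: hill climbing; a sequence that several methods proposed may carry one label only). The assay is AlphaSeq: two haploid yeast populations carry antibody and antigen on their surface. Mating (16 h, 30 °C) was followed by selection of diploids and sequencing of their barcodes. Scores were corrected for input abundance and mapped to Kd with protein pairs of known affinity run in the same pool. Each pool was mated in six replicate cultures.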

The parent's light chain CDRs are KSSQSVLYESRNKNSVA, WASTRES, QQYHRLPLS; each variant's own CDRs replace them letter for letter. Values are log10 of the apparent Kd in nM; lower means stronger binding. Averages over replicates are reported, and they cover detected replicates only. Where no diploid with the target was found in that replicate, the entry reads "nd": below detection, most likely a poor binder, though not proof of it. Background: pairings of all light chain designs with three empty control strains gave a value in 4% of cases (median 2.64, 5th percentile 1.59). Values in that range, when seen in few replicates, are hard to tell from nonspecific mating. The control count says in how many pairings with the empty strains this scFv gave a signal, with their mean in brackets. Values of this round are not directly comparable with the first-round values of the same sequences. Of ten entries with the parent sequence, four were seen in most replicates (averages 0.34 to 2.37), three in one and three in none, so single entries are noisy. The authors' rule: three or more of the six replicates give a measured affinity, fewer mean a poor binder.

{"CDR-L1": "KASQSFLYESRNKNSVA", "CDR-L2": "GASTRES", "CDR-L3": "QNYHRLPLS", "log10 Kd (nM) by replicate": "0.20 0.22 0.34 0.36 -0.10 0.47", "log10 Kd (nM), mean": "0.25", "control signals": "0 of 18"}
{"CDR-L1": "KSSQSFLYESRNKNSVA", "CDR-L2": "GASTRES", "CDR-L3": "QLYHRLPLS", "log10 Kd (nM) by replicate": "1.34 1.01 0.86 0.58 0.92 1.01", "log10 Kd (nM), mean": "0.95", "control signals": "2 of 18 (2.75)"}
{"CDR-L1": "KVSQSVLYESGTKNSVA", "CDR-L2": "NASSRES", "CDR-L3": "QQYHRLPLS", "log10 Kd (nM) by replicate": "0.41 0.19 0.01 0.23 0.10 0.25", "log10 Kd (nM), mean": "0.20", "control signals": "2 of 18 (3.23)"}
{"CDR-L1": "KLVQSWLYESRNKNSVA", "CDR-L2": "GASTRES", "CDR-L3": "QQYHRLPLI", "log10 Kd (nM) by replicate": "0.29 0.53 0.06 0.07 0.22 0.43", "log10 Kd (nM), mean": "0.27", "control signals": "2 of 18 (2.55)"}
{"CDR-L1": "KLLQSVLYESRNKNSVA", "CDR-L2": "HASTRED", "CDR-L3": "QQYHQLPLS", "log10 Kd (nM) by replicate": "0.14 0.23 0.21 0.12 0.16 0.43", "log10 Kd (nM), mean": "0.22", "control signals": "2 of 18 (2.71)"}
{"CDR-L1": "KSSQVYLYESRNKNSVA", "CDR-L2": "GASTREQ", "CDR-L3": "QQYHRLPLS", "log10 Kd (nM) by replicate": "0.00 -0.36 -0.03 -0.44 -0.37 0.00", "log10 Kd (nM), mean": "-0.20", "control signals": "0 of 18"}
{"CDR-L1": "KFSQSVAYESRTKNSVA", "CDR-L2": "NASTREA", "CDR-L3": "QQYHRLPLS", "log10 Kd (nM) by replicate": "0.28 0.36 0.16 0.32 0.02 0.39", "log10 Kd (nM), mean": "0.26", "control signals": "0 of 18"}
{"CDR-L1": "KFSQKVLYESRTKNSVA", "CDR-L2": "NASTRES", "CDR-L3": "QQYHRLPLS", "log10 Kd (nM) by replicate": "-0.12 0.13 -0.24 -0.53 -0.23 -0.13", "log10 Kd (nM), mean": "-0.19", "control signals": "1 of 18 (2.12)"}
{"CDR-L1": "KVSQSWLMESRNKNSVA", "CDR-L2": "NASTRQS", "CDR-L3": "QQYHRLPLS", "log10 Kd (nM) by replicate": "-0.11 -0.24 -0.31 -0.33 -0.27 -0.09", "log10 Kd (nM), mean": "-0.22", "control signals": "2 of 18 (3.42)"}
{"CDR-L1": "KSMQSWLYESRNKNSVA", "CDR-L2": "HASTREQ", "CDR-L3": "QQYHRLPLS", "log10 Kd (nM) by replicate": "1.25 0.25 1.12 0.85 0.64 0.55", "log10 Kd (nM), mean": "0.78", "control signals": "0 of 18"}
{"CDR-L1": "KVSQSQLYESRMKNSVA", "CDR-L2": "DASTRCS", "CDR-L3": "QQYHRLPLE", "log10 Kd (nM) by replicate": "0.33 0.33 0.22 0.23 0.34 0.42", "log10 Kd (nM), mean": "0.31", "control signals": "1 of 18 (2.79)"}
{"CDR-L1": "KSSISYLYESRNQNSVA", "CDR-L2": "AASTRES", "CDR-L3": "QQYHRLPLS", "log10 Kd (nM) by replicate": "0.84 1.10 0.40 0.31 0.32 0.88", "log10 Kd (nM), mean": "0.64", "control signals": "0 of 18"}
{"CDR-L1": "KSLQSVDYESRNKNSVA", "CDR-L2": "HASTRED", "CDR-L3": "QQYHRLPLS", "log10 Kd (nM) by replicate": "1.93 nd 1.58 nd nd nd", "log10 Kd (nM), mean": "1.75", "control signals": "0 of 18"}
{"CDR-L1": "KFSQSWIYESRNKNSVA", "CDR-L2": "GASTRES", "CDR-L3": "QQYHRLPLS", "log10 Kd (nM) by replicate": "0.27 0.24 0.24 0.14 0.16 0.59", "log10 Kd (nM), mean": "0.27", "control signals": "1 of 18 (2.79)"}
{"CDR-L1": "KESQSWGYESRNKNSVA", "CDR-L2": "GASTRES", "CDR-L3": "QQYHRLPLS", "log10 Kd (nM) by replicate": "0.35 0.27 -0.13 0.22 -0.14 0.54", "log10 Kd (nM), mean": "0.19", "control signals": "0 of 18"}
{"CDR-L1": "KSLQEQEYESRNKNSVA", "CDR-L2": "HASTRED", "CDR-L3": "QQYHRLPLS", "log10 Kd (nM) by replicate": "0.08 -0.09 0.15 -0.20 0.11 0.10", "log10 Kd (nM), mean": "0.03", "control signals": "1 of 18 (2.24)"}
{"CDR-L1": "KVSQSVLYESGTKNSVA", "CDR-L2": "NASMRES", "CDR-L3": "QQYHRLPLS", "log10 Kd (nM) by replicate": "1.12 0.43 0.47 0.45 0.50 0.95", "log10 Kd (nM), mean": "0.65", "control signals": "3 of 18 (1.88)"}
{"CDR-L1": "KSQQSVLYESRNKNNVA", "CDR-L2": "HASTRED", "CDR-L3": "QQYWRLPLS", "log10 Kd (nM) by replicate": "-0.10 -0.30 -0.20 -0.56 0.04 -0.47", "log10 Kd (nM), mean": "-0.27", "control signals": "1 of 18 (0.59)"}
{"CDR-L1": "KLSQSVLFEPRNKNSVA", "CDR-L2": "DASTRES", "CDR-L3": "QQYHRLPLS", "log10 Kd (nM) by replicate": "-0.58 -0.71 -0.40 -0.79 -0.99 -0.35", "log10 Kd (nM), mean": "-0.64", "control signals": "0 of 18"}
{"CDR-L1": "KISQSVLMEWRNKNSVA", "CDR-L2": "EASTRES", "CDR-L3": "QQYHRLPLS", "log10 Kd (nM) by replicate": "0.30 -0.13 -0.20 -0.20 -0.34 -0.19", "log10 Kd (nM), mean": "-0.13", "control signals": "0 of 18"}
{"CDR-L1": "KLSPSVEYESRNKNSVA", "CDR-L2": "NASTRES", "CDR-L3": "QQYHRLPLS", "log10 Kd (nM) by replicate": "-0.37 -0.28 -0.41 -0.37 -0.40 -0.31", "log10 Kd (nM), mean": "-0.36", "control signals": "0 of 18"}

For reference, 3 entries of the list once more:

| CDR-L1 | CDR-L2 | CDR-L3 | log10 Kd (nM) by replicate | log10 Kd (nM), mean | control signals |
|---|---|---|---|---|---|
| KSLQEQEYESRNKNSVA | HASTRED | QQYHRLPLS | 0.08 -0.09 0.15 -0.20 0.11 0.10 | 0.03 | 1 of 18 (2.24) |
| KVSQSWLMESRNKNSVA | NASTRQS | QQYHRLPLS | -0.11 -0.24 -0.31 -0.33 -0.27 -0.09 | -0.22 | 2 of 18 (3.42) |
| KVSQSVLYESGTKNSVA | NASSRES | QQYHRLPLS | 0.41 0.19 0.01 0.23 0.10 0.25 | 0.20 | 2 of 18 (3.23) |